Chains of the proteins cited; added tags and fusions are not shown.
UniProt P07861, whole entry, looked up: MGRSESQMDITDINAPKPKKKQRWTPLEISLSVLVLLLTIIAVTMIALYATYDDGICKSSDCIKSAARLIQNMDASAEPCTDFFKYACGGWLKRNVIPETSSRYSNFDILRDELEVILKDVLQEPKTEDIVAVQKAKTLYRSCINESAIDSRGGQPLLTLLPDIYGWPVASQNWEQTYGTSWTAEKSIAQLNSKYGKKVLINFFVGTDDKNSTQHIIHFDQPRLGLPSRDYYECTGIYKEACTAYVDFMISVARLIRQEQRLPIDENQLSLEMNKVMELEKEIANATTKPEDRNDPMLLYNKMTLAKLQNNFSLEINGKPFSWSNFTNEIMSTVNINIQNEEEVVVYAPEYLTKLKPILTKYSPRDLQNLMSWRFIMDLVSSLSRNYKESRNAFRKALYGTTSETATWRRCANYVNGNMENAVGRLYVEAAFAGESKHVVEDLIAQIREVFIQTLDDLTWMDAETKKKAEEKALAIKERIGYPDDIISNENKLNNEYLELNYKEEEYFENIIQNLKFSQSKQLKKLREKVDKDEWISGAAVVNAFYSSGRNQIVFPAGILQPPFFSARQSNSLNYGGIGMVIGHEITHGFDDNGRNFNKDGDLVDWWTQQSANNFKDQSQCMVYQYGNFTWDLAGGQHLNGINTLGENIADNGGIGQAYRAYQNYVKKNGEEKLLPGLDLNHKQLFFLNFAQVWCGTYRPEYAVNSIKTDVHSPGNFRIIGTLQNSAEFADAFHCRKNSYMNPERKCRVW

In BindingDB's records for 2993614 (1985):

Target: Neprilysin (Rattus norvegicus, UniProt P07861)

CC(C)CC(NC(=O)C(Cc1ccccc1)NP(C)(O)=S)C(=O)O (stereo unspecified)
Ki: 420 nM
